{"sequences": {"note": "Amino acid sequences for entries named in this document (tags omitted).", "UniProt Q96LB2, whole entry": "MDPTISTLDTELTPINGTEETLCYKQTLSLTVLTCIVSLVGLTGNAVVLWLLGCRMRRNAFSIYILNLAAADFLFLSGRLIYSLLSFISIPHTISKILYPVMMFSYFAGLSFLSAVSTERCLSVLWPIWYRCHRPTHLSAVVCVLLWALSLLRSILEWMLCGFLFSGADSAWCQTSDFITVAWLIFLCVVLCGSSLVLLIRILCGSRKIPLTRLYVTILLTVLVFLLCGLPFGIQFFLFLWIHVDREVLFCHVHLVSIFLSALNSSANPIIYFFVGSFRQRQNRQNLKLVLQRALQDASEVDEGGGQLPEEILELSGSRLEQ"}, "source": "PubChem BioAssay AID588676", "about": "(Johns Hopkins Ion Channel Center, 2011)", "note": "Only a part is listed here, and it is no random draw. Calls of active or inactive are those of the source.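 Rule for the calls: active = calcium-response B-score plate-corrected more than 3 library SD below zero, starting fluorescence within 5 deviations, no agonist response on first addition; inactive = the rest.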"}
{"target": "Mas-related G-protein coupled receptor member X1 (Homo sapiens) (UniProt Q96LB2)", "test": "blockade of BAM8-22-evoked MrgX1 calcium response – HEK293 cells, Fluo-4 calcium flux, primary screen (AID 588676)", "conditions": "Fluo-4, BAM8-22 antagonism, at 10 µM"}
{"smiles": "c1ccc(CN2CCC(Nc3ccccc3)CC2)cc1", "outcome": "inactive"}
{"smiles": "CCCN1CCC(Nc2cc(OC)cc(OC)c2)CC1", "outcome": "inactive"}
{"smiles": "CN(C)C1(CNC(=O)c2cccc(C#N)c2)CCCCC1", "outcome": "inactive"}
{"smiles": "CC(C)(C)OC(=O)N1CCC(N(C(=O)c2ccccc2)c2ccc(Cl)cc2)CC1", "outcome": "inactive"}
{"smiles": "N#Cc1ccc(C(=O)NCC2(N3CCCCC3)CCCCC2)cc1", "outcome": "inactive"}
{"smiles": "N/C(=N\\O)c1c(N)no[n+]1[O-]", "outcome": "inactive"}
{"smiles": "CCOC(=O)N1CCC(Nc2ccc(C)cc2)CC1", "outcome": "inactive"}
{"smiles": "O=C(OC1CN2CCC1CC2)C1c2ccccc2C=Cc2ccccc21", "note": "(centres undefined)", "outcome": "inactive"}
{"smiles": "CCc1cc(C(=O)NCC2(N3CCCCC3)CCCCC2)sc1C", "outcome": "inactive"}
{"smiles": "COc1ccc(C(=O)NCC2(N3CCOCC3)CCCCC2)cc1OC", "outcome": "inactive"}
{"smiles": "CCC(CO)(C(=O)OC1CN2CCC1CC2)c1ccccc1", "note": "(centres undefined)", "outcome": "inactive"}
{"smiles": "COc1cccc(C(=O)N(c2cc(C)cc(C)c2)C2CCN(C(=O)OC(C)(C)C)CC2)c1", "outcome": "inactive"}
{"smiles": "COc1cc(OC)cc(C(=O)NCC2(N3CCOCC3)CCCCC2)c1", "outcome": "inactive"}
{"smiles": "CCCOc1ccc(C)cc1CN(CCCl)CCCl", "outcome": "inactive"}
{"smiles": "CN1CCC(Nc2ccc(Cl)cc2)CC1", "outcome": "inactive"}
{"smiles": "CCOc1ncccc1C(=O)NCC1(N2CCOCC2)CCCCC1", "outcome": "inactive"}
{"smiles": "CN1CCC(Nc2ccc(F)c(Cl)c2)CC1", "outcome": "inactive"}
{"smiles": "CCCOc1ccc(C(=O)NCC2(N(C)C)CCCCC2)cc1", "outcome": "inactive"}
{"smiles": "CC(C)(C)OC(=O)N1CCC(Nc2ccccc2)CC1", "outcome": "inactive"}
{"smiles": "O=C(O)C1(Nc2ccccc2)CCN(Cc2ccccc2)CC1", "outcome": "inactive"}
{"smiles": "CCN1CCC(Nc2cccc(F)c2)CC1", "outcome": "inactive"}
{"smiles": "CN(C)c1ccc(C(=O)NCC2(N3CCCCC3)CCCCC2)cc1", "outcome": "inactive"}
{"smiles": "COc1cc(OC)cc(C(=O)NCC2(N3CCCCC3)CCCCC2)c1", "outcome": "inactive"}
{"smiles": "Cc1ccc(C(=O)NCC2(N3CCCCC3)CCCCC2)o1", "outcome": "inactive"}
{"smiles": "Fc1ccccc1NC1CCN(Cc2ccccc2)CC1", "outcome": "inactive"}
{"smiles": "COc1cc(C(=O)NCC2(N(C)C)CCCCC2)ccc1OC(F)F", "outcome": "inactive"}
{"smiles": "CCOC(=O)N1CCC(Nc2cccc(C)c2)CC1", "outcome": "inactive"}
{"smiles": "Cc1ccc(OCC(C)C)c(CN(CCCl)CCCl)c1", "outcome": "inactive"}
{"smiles": "CCOc1ccc(C)cc1CN(CCCl)CCCl", "outcome": "inactive"}
{"smiles": "O=C(NCC1(N2CCCCC2)CCCCC1)c1ccc(F)cc1", "outcome": "inactive"}
{"smiles": "CCOC(=O)N1CCC(Nc2ccc(F)cc2)CC1", "outcome": "inactive"}
{"smiles": "COc1ccc(NC2CCN(CCc3ccccc3)CC2)c(OC)c1", "outcome": "inactive"}
{"smiles": "O=C(NCC1(N2CCOCC2)CCCCC1)c1cc2ccccc2o1", "outcome": "inactive"}
{"smiles": "O=C(NCC1(N2CCCCC2)CCCCC1)c1ccc(Cl)nc1", "outcome": "inactive"}
{"smiles": "Cc1cc(C)cc(N(C(=O)c2ccccc2)C2CCN(C(=O)OC(C)(C)C)CC2)c1", "outcome": "inactive"}
{"smiles": "CCOC(=O)N1CCC(Nc2ccc(OC)cc2)CC1", "outcome": "inactive"}
{"smiles": "O=C(OC1CN2CCC1CC2)C1c2ccccc2Oc2ccccc21", "note": "(centres undefined)", "outcome": "inactive"}
{"smiles": "N#CC1(Nc2ccccc2)CCN(Cc2ccccc2)CC1", "outcome": "inactive"}
{"smiles": "O=C(NCC1(N2CCCCC2)CCCCC1)c1ccc(=O)[nH]c1", "outcome": "inactive"}
{"smiles": "O=C(NCC1(N2CCCCC2)CCCCC1)c1cccs1", "outcome": "inactive"}
{"smiles": "COc1ccc(C(=O)NCC2(N3CCCCC3)CCCCC2)cc1", "outcome": "inactive"}
{"smiles": "CC(C)(C)OC(=O)N1CCC(N(C(=O)c2ccccc2)c2ccc(F)cc2)CC1", "outcome": "inactive"}
{"smiles": "COc1ccc(C(=O)NCC2(N3CCCCC3)CCCCC2)c(OC)c1OC", "outcome": "inactive"}
{"smiles": "CSc1ccccc1C(=O)NCC1(N2CCCCC2)CCCCC1", "outcome": "inactive"}
{"smiles": "CN1CCC(Nc2cccc(F)c2)CC1", "outcome": "inactive"}
{"smiles": "CCCOc1ccc(C(=O)NCC2(N(C)C)CCCCC2)cc1OC", "outcome": "inactive"}
{"smiles": "COc1ccc(CN(CCCl)CCCl)cc1Cl", "outcome": "inactive"}
{"smiles": "CN(C)c1cccc(C(=O)NCC2(N3CCCCC3)CCCCC2)c1", "outcome": "inactive"}
{"smiles": "CC(C)c1ccc(NC2CCN(C(=O)OC(C)(C)C)CC2)cc1", "outcome": "inactive"}
{"smiles": "COc1cc(OC)c(C(=O)NCC2(N(C)C)CCCCC2)cc1OC", "outcome": "inactive"}
{"smiles": "O=C(NCC1(N2CCCCC2)CCCCC1)c1cccc(C(F)(F)F)c1", "outcome": "inactive"}
{"smiles": "COc1ccc(NC2CCN(C(=O)OC(C)(C)C)CC2)cc1", "outcome": "inactive"}
{"smiles": "CN1CCN(CCOC(=O)C(O)(c2ccccc2)c2ccccc2)CC1", "outcome": "inactive"}
{"smiles": "O=C(NCC1(N2CCOCC2)CCCCC1)c1cc(=O)[nH]c2ccccc12", "outcome": "inactive"}
{"smiles": "COc1cc(C(=O)NCC2(N3CCCCC3)CCCCC2)ccc1OC(F)F", "outcome": "inactive"}
{"smiles": "O=C(NCC1(N2CCCCC2)CCCCC1)c1ccc(OC(F)F)cc1", "outcome": "inactive"}
{"smiles": "O=C(NCC1(N2CCCCC2)CCCCC1)c1cccc([N+](=O)[O-])c1", "outcome": "inactive"}
{"smiles": "CCN1CCC(Nc2ccc(Cl)cc2)CC1", "outcome": "inactive"}
{"smiles": "N#CC1(Nc2ccccc2)CCN(CCc2ccccc2)CC1", "outcome": "inactive"}
